Yeast mating assay 1: variants of the scFv Ab-14

From the AlphaSeq antibody data of Engelhart et al. 2022 (doi:10.1038/s41597-022-01779-4), copy in the FLAb collection.

All variants were tested on one target, the spike HR2 peptide PDVDLGDISGINAS (SARS-CoV-2).

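In library AAYL49, one, two or three CDR residues were substituted; doubles and triples were drawn at random. In AlphaSeq, yeast of one mating type display the scFv and yeast of the other type display the target. Pairs that bind mate more often; barcode pairs of the diploids are counted by sequencing. Each replicate has its own calibration line, from reference interactions of the BCL2 family. The assay was run in three technical replicates.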

Each scFv is VH, a 15-residue (Gly4Ser)3 linker, VL, as in the parent Ab-14, and differs from it in the CDRs of the heavy chain only.
VH: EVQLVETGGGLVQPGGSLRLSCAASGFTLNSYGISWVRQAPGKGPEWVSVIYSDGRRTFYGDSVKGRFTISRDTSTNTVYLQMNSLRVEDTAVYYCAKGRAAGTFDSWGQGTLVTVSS
VL: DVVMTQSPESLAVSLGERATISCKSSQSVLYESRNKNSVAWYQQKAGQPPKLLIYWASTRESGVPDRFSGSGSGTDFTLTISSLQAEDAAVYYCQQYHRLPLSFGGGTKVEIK

Each variant's VH is given in full. Scale: log10 of Kd in nM, estimated from mating counts; low values are strong binders. Averages over replicates are reported, and they cover detected replicates only. A pair that was not seen in any replicate is written "nd"; this usually means weak binding, but a binder can also be missed. Entries are sorted by rising average, undetected variants last. Empty control strains, which show no peptide, gave a signal in 15% of pairings with library AAYL49; the median was 4.06 and 95% of these signals were weaker than 2.83. No background was subtracted.

| mean, log10 nM | seen in | VH |
|---|---|---|
| 0.83 | 3/3 | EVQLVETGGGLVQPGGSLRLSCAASGFTLNSYGISWVRQAPGKGPEWVSVIYSDGRRTFYGDSVKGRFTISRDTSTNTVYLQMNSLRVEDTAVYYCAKGRAAGTPPSWGQGTLVTVSS |
| 2.40 | 3/3 | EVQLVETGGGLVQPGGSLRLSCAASGWLLNSYGISWVRQAPGKGPEWVSVIYSDGRRTFYGDSVKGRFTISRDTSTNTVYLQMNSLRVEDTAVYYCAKGRAAGTFDLWGQGTLVTVSS |
| 3.56 | 1/3 | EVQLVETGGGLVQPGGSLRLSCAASGFTLPSYGISWVRQAPGKGPEWVSVIYSDGRCTFYGDSVKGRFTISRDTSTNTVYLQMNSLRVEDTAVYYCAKGRDAGTFDSWGQGTLVTVSS |
| 3.64 | 2/3 | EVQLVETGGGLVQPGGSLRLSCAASGFTLNSYGISWVRQAPGKGPEWVSVIYSDGRRTFGGDSVKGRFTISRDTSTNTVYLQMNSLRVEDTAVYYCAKGRACGFFDSWGQGTLVTVSS |
| 3.83 | 1/3 | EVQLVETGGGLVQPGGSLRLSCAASGITLNSKGGSWVRQAPGKGPEWVSVIYSDGRRTFYGDSVKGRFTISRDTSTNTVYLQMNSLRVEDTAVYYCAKGRAAGTFDSWGQGTLVTVSS |
| 4.16 | 1/3 | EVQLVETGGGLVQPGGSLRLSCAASGFTLNSYCISWVRQAPGKGPEWVSVIYSDGRRTFYGDSVKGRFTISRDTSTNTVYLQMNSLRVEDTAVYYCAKGRAAGTFHSWGQGTLVTVSS |
| 4.36 | 1/3 | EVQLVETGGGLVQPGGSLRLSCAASGFTLNSYGISWVRQAPGKGPEWVSVIYRDGRRTFYGDHVKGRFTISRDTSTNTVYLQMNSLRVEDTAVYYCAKGRAAKTFDSWGQGTLVTVSS |
| 4.44 | 1/3 | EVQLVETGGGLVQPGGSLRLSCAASGFTLNSYGISWVRQAPGKGPEWVSVIMSDGRRTFYSDCVKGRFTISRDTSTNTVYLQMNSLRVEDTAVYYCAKGRAAGTFDSWGQGTLVTVSS |
| 4.96 | 2/3 | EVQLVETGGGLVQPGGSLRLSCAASGFTLNSYYISWVRQAPGKGPEWVSVIYMDGRRTFYGDSVKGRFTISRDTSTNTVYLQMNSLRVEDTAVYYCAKGGAAGTFDSWGQGTLVTVSS |
| 5.84 | 2/3 | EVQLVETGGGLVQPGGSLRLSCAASGFTLNSYGARWVRQAPGKGPEWVSVIYSDGRRTFYGDSVKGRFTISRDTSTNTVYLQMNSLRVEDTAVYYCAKGRAAFTFDSWGQGTLVTVSS |
| nd | 0/3 | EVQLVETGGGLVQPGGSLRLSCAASGFTLNSYGISWVRQAPGKGPEWVSVIASDKRRTFYGDSVKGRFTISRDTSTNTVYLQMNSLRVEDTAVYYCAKGRAAGTFQSWGQGTLVTVSS |
| nd | 0/3 | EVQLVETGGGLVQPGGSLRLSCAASGHTRNSYGISWVRQAPGKGPEWVSVMYSDGRRTFYGDSVKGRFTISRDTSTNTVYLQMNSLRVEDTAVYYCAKGRAAGTFDSWGQGTLVTVSS |
| nd | 0/3 | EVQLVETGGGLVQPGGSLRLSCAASGNTLNSYGISWVRQAPGKGPEWVSVIYSDGRRTFYGDSSKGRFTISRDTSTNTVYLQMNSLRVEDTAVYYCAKGRAAWTFDSWGQGTLVTVSS |
| nd | 0/3 | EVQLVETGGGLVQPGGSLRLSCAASGFTFNSYGISWVRQAPGKGPEWVSVIYSEGRRTFYGDSVKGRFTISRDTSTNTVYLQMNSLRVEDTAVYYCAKGRAAGTFDSWGQGTLVTVSS |
| nd | 0/3 | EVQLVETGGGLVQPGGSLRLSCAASGQTLNSYGISWVRQAPGKGPEWVSVIYSDGRRTMYGDSVKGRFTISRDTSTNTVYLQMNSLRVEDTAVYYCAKNRAAGTFDSWGQGTLVTVSS |
| nd | 0/3 | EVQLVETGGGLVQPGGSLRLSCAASGFTLNSYGISWVRQAPGKGPEWVSVHYSDGRRTFYGDCVKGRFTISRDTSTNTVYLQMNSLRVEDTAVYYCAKGRAAGTFDSWGQGTLVTVSS |
| nd | 0/3 | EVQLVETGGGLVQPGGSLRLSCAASGFTLNSHGISWVRQAPGKGPEWVSVSYSDGRRTFYGDSVKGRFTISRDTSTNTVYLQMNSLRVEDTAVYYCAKGIAAGTFDSWGQGTLVTVSS |
| nd | 0/3 | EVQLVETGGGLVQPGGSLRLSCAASGFTLNSYGISWVRQAPGKGPEWVSVIYSDGRGTFSGDSVKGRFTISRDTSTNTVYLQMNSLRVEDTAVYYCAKGRAAGTLDSWGQGTLVTVSS |
| nd | 0/3 | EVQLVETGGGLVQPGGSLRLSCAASGFTLNSYGIWWVRQAPGKGPEWVSVIYSDGRRTFYMDSVKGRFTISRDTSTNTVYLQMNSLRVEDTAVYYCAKGRAAGTFDSWGQGTLVTVSS |
| nd | 0/3 | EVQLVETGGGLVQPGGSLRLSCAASNFTLNSYGISWVRQAPGKGPEWVSVIYSDGRRTWYGDSEKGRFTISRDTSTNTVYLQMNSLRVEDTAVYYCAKGRAAGTFDSWGQGTLVTVSS |
| nd | 0/3 | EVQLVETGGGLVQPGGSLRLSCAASGFTLNSYGFSWVRQAPGKGPEWVSVIYSDGRRTFYGDSVKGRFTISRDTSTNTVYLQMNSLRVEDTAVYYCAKGIAAGTFDSWGQGTLVTVSS |

The 2 strongest on average among those seen in every replicate, once more:

| VH | mean, log10 nM | seen in |
|---|---|---|
| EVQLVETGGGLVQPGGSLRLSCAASGFTLNSYGISWVRQAPGKGPEWVSVIYSDGRRTFYGDSVKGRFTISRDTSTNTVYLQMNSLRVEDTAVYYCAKGRAAGTPPSWGQGTLVTVSS | 0.83 | 3/3 |
| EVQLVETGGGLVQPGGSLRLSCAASGWLLNSYGISWVRQAPGKGPEWVSVIYSDGRRTFYGDSVKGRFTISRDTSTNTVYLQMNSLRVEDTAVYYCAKGRAAGTFDLWGQGTLVTVSS | 2.40 | 3/3 |